Reference: ChEMBL document CHEMBL1137885, “P4 and P1' optimization of bicycloproline P2 bearing tetrapeptidyl alpha-ketoamides as HCV protease inhibitors” (Bioorg Med Chem Lett, 2004)

Molecular target: NS3 (Hepatitis C virus, UniProt A3EZJ3)
Test: Inhibition of HCV NS3 protease in the pNA based inhibition assay
Parameters: species or system Hepacivirus hominis

`CCCC(NC(=O)[C@@H]1[C@H]2CCC[C@H]2CN1C(=O)[C@@H](NC(=O)[C@@H](NC(=O)c1cnccn1)C(C)C)C(C)(C)C)C(=O)C(=O)NC1CC1` (stereo partly specified) showed a Ki of 80 nM.
